{"source": "patent US20110183942A1", "about": "“Methods and Compositions for Treating Alzheimer's Disease” (UNIVERSITY OF MEDICINE AND DENTISTRY OF NEW JERSEY, priority 2008, published 2011)", "biological_target": "T1, eEF2 kinase (Homo sapiens, UniProt O00418)", "T1 construct": "made in house; host or cells: E. coli", "assay": "HTS screen for eEF2 kinase inhibitors (ATP depletion coupled to luciferase luminescence, eEF2p substrate)", "assay_type": "biochemical"}
{"molecule": "CCCCCCCCCCCCCCCCN1C2=NCCCN2c2ccccc21", "note": "[L-587]", "values": [{"measurement": "identified as inhibitor for eEF2 kinase", "result": "inhibitors for eEF2 kinase"}]}
